Measurements reported in patent USRE28744E, “Crystalline p-hydroxyampicillin and salts thereof” (priority 1968, dated 1976).

Legend:
Format in all cases: cell-based
Proteus mirabilis = assay: in vitro antibacterial screening, M.I.C., Proteus mirabilis; details: read-out: M.I.C. Proteus mirabilis
Salm. typhi = assay: in vitro antibacterial screening, M.I.C., Salm. typhi; details: Salmonella enterica, read-out: M.I.C. Salm. typhi, in vitro
Kleb. pneum = assay: in vitro antibacterial screening, M.I.C., Kleb. pneum; details: read-out: M.I.C. Kleb. pneum, in vitro
Shigella flexneri = assay: in vitro antibacterial screening, M.I.C., Shigella flexneri

SMILES | MIC (Proteus mirabilis) [µg/mL] | MIC (Salm. typhi) [µg/mL] | MIC (Kleb. pneum) [µg/mL] | MIC (Shigella flexneri) [µg/mL]
CC1(C)S[C@@H]2[C@H](NC(=O)[C@H](N)c3ccc(O)cc3)C(=O)N2[C@H]1C(=O)O [Example 3, 6-[(-)α-amino-p-hydroxyphenylacetamido]Penicillanic Acid] | 1.25 (≈ 3.42 µM) | 1.25 (≈ 3.42 µM) | 1.25 (≈ 3.42 µM) | –
CC1(C)S[C@@H]2[C@H](NC(=O)[C@@H](N)c3ccc(O)cc3)C(=O)N2[C@H]1C(=O)O [Example 4, 6[(+)α-amino-p-hydroxyphenylacetamido]penicillanic Acid] | 12.5 (≈ 34.2 µM) | 12.5 (≈ 34.2 µM) | – | 12.5 (≈ 34.2 µM)

In brackets after ≈: the same amount, converted by molar mass.
